Data: US10202593B2, “Evolved sortases and uses thereof” (President and Fellows of Harvard College, priority 2013, dated 2019)

Molecular target: T1, eSrtA + Btn-LAETGG (Staphylococcus aureus, UniProt Q2FV99, D160N/D165A/K190E/K196T/P94R)
T1 construct: All expressed sortases lack the N-terminal 59 amino acids; expressed in transfected cells; host or cells: S. cerevisiae ICY200 (pCTCon2CTev vector)
T1 sequence (Q2FV99 60-206 P94R/D160N/D165A/G167E/K190E/K196T): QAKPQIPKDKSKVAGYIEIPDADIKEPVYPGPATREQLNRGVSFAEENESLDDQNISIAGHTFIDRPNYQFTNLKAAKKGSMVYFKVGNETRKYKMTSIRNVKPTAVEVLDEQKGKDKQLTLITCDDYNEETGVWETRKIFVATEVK
Test: Competitive negative screen on yeast displaying eSrtA (flow cytometry)
Format: cell-based, S. aureus
Conditions: 100 μM LPETG; 10 μM biotin-LAETG, 1 hour
Protocol: FIG. 22 depicts the validation of a competitive negative screen for sortase specificity. ICY200 Yeast displaying eSrtA were induced overnight with SGR media, then incubated for one hour with 10 μM Btn-LAETGG (SEQ ID NO: 35) peptide and between 100 nM and 1 mM non-biotinylated LPETGG (SEQ ID NO: 36) peptide in TBS supplemented with 5 mM CaCl2. Cells were cleaved using TEV, labeled for expression and activity as described above, and assayed by flow cytometry.
We incubated these cells with 10 μM biotin-LAETG (SEQ ID NO: 5) and a range of 100 nM to 1 mM non-biotinylated LPETG (SEQ ID NO: 4) for 1 hour (FIG. 22).

CC(C)C[C@H](N)C(=O)N1CCC[C@H]1C(=O)N[C@@H](CCC(=O)O)C(=O)N[C@H](C(=O)NCC(=O)NCC(=O)O)[C@@H](C)O [LPETG]
inhibition of cell biotinylation: virtually complete inhibition
